In patent US8598364B2, “Oligomer-protease inhibitor conjugates” (Nektar Therapeutics, priority 2007, dated 2013):

Test system: CEM-SS cells

CCC[C@@]1(CCc2ccccc2)CC(O)=C([C@H](CC)c2cccc(N(CCOCCOCCOCCOCCOCCOCCOC)S(=O)(=O)c3ccc(C(F)(F)F)cn3)c2)C(=O)O1
CC50: 14.5 µM
